In US8013153B2, “Substituted pyrimidine kinase inhibitors” (Janssen Pharmaceutica, N.V., priority 2006, dated 2011):

Experiments:
[1] = target: C-Raf (Homo sapiens, UniProt P04049); test: RAF Kinase Screening Assay (C-Raf); conditions: Compound 50 tested at 30 μM
[2] = system: HeLa cervical adenocarcinoma; test: Inhibition of in vitro cell proliferation (HeLa); assay type: cell-based; conditions: Homo sapiens, 14C-thymidine incorporation;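 also: cells exposed to compound for 24 h, then labelled 24 h with methyl 14C-thymidine, with uptake into DNA counted by scintillation against DMSO-only control wells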
Experimental: (§1) The ability of a test compound to inhibit the proliferation of cell growth was determined by measuring incorporation of ^14C-labelled thymidine into newly synthesized DNA within the cells. This method was used on American Type Culture Collection (ATCC, Virginia) cell lines derived from carcinomas originating from several tissues such as HeLa cervical adenocarcinoma (ATCC Cat. #CCL-2), A375 malignant melanoma (ATCC Cat. #CRL-1619), HCT-116 colon carcinoma (ATCC Cat. #CCL-247). The A431 cell line for epidermoid carcinoma was grown in DMEM containing L-glutamine, sodium pyruvate, 1 g/L glucose+10% FBS.
(§2) The carcinoma cells are trypsinized and counted. The cells (3000-8000 count) are added to each well of a 96-well CytoStar tissue culture treated scintillating microplate (Amersham #RPNQ0160) in complete medium (100 μL) and the plate is then incubated in complete medium for 24 hrs at 37° C. in an inert atmosphere containing 5% CO2.
(§3) Test compound (1 μL) in 100% DMSO is added to the plate test-wells with DMSO only added to control-wells. The plate is incubated in complete medium for a second 24 hr period at 37° C. in an atmosphere containing 5% CO2.
(§4) An aliquot of a solution of Methyl ^14C-thymidine (56 mC/mmol) (NEN #NEC568 or Amersham #CFA532) in complete medium (20 uL to provide 0.2 μCi/well) is then added to each well and the plate is incubated for a third 24 hr period at 37° C. in an atmosphere containing 5% CO2.
(§5) The plate contents are then discarded, the plate is washed twice with PBS (200 μL) and then PBS (200 μL) is added to each well. The plate is sealed and the degree of methyl ^14C-thymidine incorporation is quantified on a Packard Top Count.
(§6) Cell culture reagents were obtained from Invitrogen (Carlsbad, Calif.) supplemental fetal calf serum was purchased from Hyclone, Logan Utah. Cells were maintained at 37 C plus 5% CO2, and grown as monolayers prior to tumor implantation.

[3] = system: HCT-116 colon carcinoma; test: Inhibition of in vitro cell proliferation (HCT116); assay type: cell-based; conditions: Homo sapiens, HCT-116, 14C-thymidine incorporation;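 also: cells exposed to compound for 24 h, then 14C-thymidine added for a further 24 h and its uptake into DNA counted by scintillation, DMSO-only wells as control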
Experimental: as §1, §2, §3, §4, §5, §6

[4] = system: A375 malignant melanoma; test: Inhibition of in vitro cell proliferation (A375); assay type: cell-based; conditions: Homo sapiens, A-375, 14C-thymidine incorporation;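 also: cells plated for 24 h, given compound for 24 h, then labelled with 14C-thymidine for another 24 h, with DMSO-only wells as control and counts read by scintillation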
Experimental: as §1, §2, §3, §4, §5, §6

| Structure (SMILES) | activity against C-Raf [1] | IC50 [2] | IC50 [3] | IC50 [4] |
| --- | --- | --- | --- | --- |
| CNC(=O)c1cc(Oc2ccc(NC(=O)Nc3ccc(Cl)c(C(F)(F)F)c3)cc2)ccn1 [BAY 43-9006, reference compound] | Inhibition |  |  |  |
| Cc1cc2c(F)c(Oc3ncnc(N)c3C=NOCCN3CCOCC3)ccc2[nH]1 [Cpd 14, 4-amino-6-(4-fluoro-2-methyl-1H-indol-5-yloxy)-pyrimidine-5-carbaldehyde O-(2-morpholin-4-yl-ethyl)-oxime] |  | 0.699 µM | 1.16 µM | 0.339 µM |
| Cc1cc2c(F)c(Oc3ncnc(N)c3C=NOCCN(C)C)ccc2[nH]1 [Cpd 15, 4-amino-6-(4-fluoro-2-methyl-1H-indol-5-yloxy)-pyrimidine-5-carbaldehyde O-(2-dimethylamino-ethyl)-oxime] |  | 3.23 µM | 4.25 µM | 0.501 µM |
| Cc1cc2c(F)c(Oc3ncnc(N)c3C=NOCCCN(C)C)ccc2[nH]1 [Cpd 17, 4-amino-6-(4-fluoro-2-methyl-1H-indol-5-yloxy)-pyrimidine-5-carbaldehyde O-(3-dimethylamino-propyl)-oxime] |  | 4.33 µM | 4.29 µM | 1.6 µM |
| C#CCON=Cc1c(N)ncnc1Oc1ccc2[nH]c(C)cc2c1F [Cpd 30, 4-amino-6-(4-fluoro-2-methyl-1H-indol-5-yloxy)-pyrimidine-5-carbaldehyde O-prop-2-ynyl-oxime] |  | 0.028 µM | 0.028 µM |  |
